Literature values, collected in publication PMC5099547 (British Journal of Clinical Pharmacology, 2016).

Test system: CYP3A4
Settings: cited from earlier work

cyclosporine
degree of CYP3A4 inhibitory activity: weak
